Data reported in patent US20170313754A1 (PROTAGONIST THERAPEUTICS, published 2017).
Read-outs that look alike come from different tables or passages of the source.

T1: human ferroportin (SLC40A1) fused in frame with GFP, stably expressed on HEK293 cells (human, UniProt Q9NP59 1-571)
T1 sequence (looked up): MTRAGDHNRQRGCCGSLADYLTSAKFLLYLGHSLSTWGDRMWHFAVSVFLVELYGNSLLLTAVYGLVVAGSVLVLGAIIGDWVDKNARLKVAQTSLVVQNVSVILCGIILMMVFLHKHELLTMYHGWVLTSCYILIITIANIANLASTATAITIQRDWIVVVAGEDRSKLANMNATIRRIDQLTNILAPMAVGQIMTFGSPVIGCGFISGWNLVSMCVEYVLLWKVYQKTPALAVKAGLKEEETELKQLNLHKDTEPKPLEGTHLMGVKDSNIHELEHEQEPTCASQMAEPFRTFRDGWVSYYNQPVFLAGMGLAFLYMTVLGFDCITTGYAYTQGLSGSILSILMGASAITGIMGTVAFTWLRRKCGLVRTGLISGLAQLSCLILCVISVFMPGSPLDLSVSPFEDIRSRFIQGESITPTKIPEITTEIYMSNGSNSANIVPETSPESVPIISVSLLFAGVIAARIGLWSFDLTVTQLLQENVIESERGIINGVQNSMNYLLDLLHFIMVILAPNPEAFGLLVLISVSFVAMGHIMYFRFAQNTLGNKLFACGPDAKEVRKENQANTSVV


Experiments:
[1] = target: T1, human ferroportin (SLC40A1) fused in …; experiment: cell-based or functional assay
[2] = target: T1, human ferroportin (SLC40A1) fused in …; experiment: cell-based or functional assay; remark: listed apart in the source

Binder	EC50 (nM) (n > 3), ferroportin internalization/degradation assay [1]	EC50 (nM) (n > 3), ferroportin internalization/degradation assay [2]
DTHFPCIKF (N-terminal isovaleric acid on each subunit; the two subunits are joined at their C-termini through a [Lys] linker, which is followed by Lys[(isoGlu(octanoic acid)]-NH2)) [(Isovaleric acid-DTHFPCIKF)2[Lys]-Lys[(isoGlu(octanoic acid)]-NH2]	17 nM	–
DTHFPCIKF (N-terminal isovaleric acid on each subunit; the two subunits are joined at their C-termini through a [Lys] linker, which is followed by Lys(Palm)-NH2) [(Isovaleric acid-DTHFPCIKF)2[Lys]-Lys(Palm)-NH2]	–	17 nM
DTHFPCIKF (N-terminal cyclohexanoic acid on each subunit; the two subunits are joined at their C-termini through a [Lys] linker, which is followed by K(iso-Glu-Palm)-NH2) [(cyclohexanoic acid-DTHFPCIKF)2[Lys]K(iso-Glu-Palm)-NH2]	17 nM	17 nM
